Measured values as given in US6500843B2, “Inhibitors of rotamase enzyme activity” (GPI NIL Holdings, Inc., priority 1995, dated 2002).

Amino acid sequences for entries named in this document (tags omitted).
UniProt P62942, whole entry: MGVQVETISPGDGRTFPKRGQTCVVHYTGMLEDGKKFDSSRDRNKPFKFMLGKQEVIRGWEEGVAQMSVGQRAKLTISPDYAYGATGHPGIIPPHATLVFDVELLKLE

Assays:
[1] = tested on: Sprague-Dawley rats, sciatic nerve crush; experiment: Sciatic nerve axotomy (crush) model of nerve regeneration; conditions: 30 mg/kg s.c. daily, 18 days after lesion
recombinant FKBP-12 = recombinant FKBP-12 (Homo sapiens, UniProt P62942); experiment: Inhibition of 3H-FK506 binding to recombinant FKBP-12; conditions: read-out: [3H]-FK506-FKBP12 (IC50); Table 3

**Q.** What does the source list for `CCC(C)(C)C(=O)C(=O)N1CCCCC1C(=O)OCCCc1ccccc1` (stereo not drawn)?
**A.** Axon Number (% Control) [1]: 75 % Control; Myelin Level [1]: 35; IC50 (recombinant FKBP-12): 8 µM
